Publication PMC12670426 (Journal of Medicinal Chemistry, 2025)
Read-outs that look alike come from different tables or passages of the source.

Sequences of proteins named here, by UniProt entry; tags and fusion partners are left off. Residues count along the entry.
UniProt P09382, 2-135: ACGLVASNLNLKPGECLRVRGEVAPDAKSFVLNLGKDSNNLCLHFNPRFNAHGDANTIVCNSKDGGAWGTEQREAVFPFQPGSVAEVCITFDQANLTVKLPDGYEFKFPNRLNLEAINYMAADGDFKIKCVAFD

Molecular target: T1, human galectin-1 (Gal-1, full length) (Homo sapiens, UniProt P09382)
T1 construct: Gal-1 is a prototype galectin consisting of a single CRD and was used in full length; 6xHis tag with TEV protease site (N, cleaved yes); made in house; host or cells: BL21 Escherichia coli (pET-15b)
Assay: Competitive fluorescence polarization assay, Gal-1
Assay type: binding
Description: Our investigation of the structure–activity relationship of N-aryl-N-lactosylamides started with an initial screening of substituted acetanilides (Table ). These compounds can be readily synthesized from a wide range of commercially available substituted anilines. Affinity was evaluated using a fluorescence polarization assay, which enables reliable determination of dissociation constants (K d) between small molecules and galectins. All inhibitors in this series were tested against the two most common human galectins: Gal-1 and Gal-3. Gal-1 is a prototype galectin consisting of a single CRD and was used in full length. In the case of Gal-3, which consists of the C-terminal CRD and N-terminal unfolded region, only the C-terminal domain was used (Gal-3C). Affinities were compared to methyl β-lactoside (β-LacOMe) as a baseline.
Fluorescence polarization experiments for determining inhibitor affinities were performed using the same instrumentation and settings as described for the direct binding experiments. […] The galectin–probe mixture was subsequently added using a Certus Flex liquid handler (Fritz Gyger AG, Switzerland) to reach a final volume of 5 μL. Anisotropy was measured after 30–60 min incubation at 25 °C. Inhibitor dissociation constants (K d) were calculated using Wang’s exact cubic model for competitive binding implemented in the BindCurve package. Protein and probe concentrations used in these competitive experiments are provided in the Supporting Information.
Competitive binding was modeled by Wang’s exact cubic model,3 which is written as […]
r = rmin + (rmax − rmin) 3 (6) […]
where r, rmin and rmax have the same meaning as in Equation 1. The coefficients a, b, and c are […]
a = Kd∗ + Kd + [L∗]T + [L]T − [R]T (7) b = Kd∗([L]T − [R]T) + Kd([L∗]T − [R]T) + Kd∗ Kd (8) […]
where Kd∗ is the dissociation constant of the probe, Kd is the dissociation constant of the […]
the unlabeled ligand, and [R]T is the total concentration of the receptor. The angle θ is defined […]
In the competitive binding experiments, the values of [L∗]T, [R]T and Kd∗ are known and [L]T is titrated. The values of minimal and maximal anisotropy rmin and rmax were fixed during fitting at the values of the minimal and maximal asymptotes obtained from the direct binding experiments. The value of Kd was calculated as the only unfixed parameter in the model.
Experimental constants used for the competitive fluorescence polarization experiments are […]
Table S2. Experimental constants used for competitive fluorescence polarization experiments. […]

**Q.** How did the IC50 (CSV supplement, unrounded mean, read-out: Gal1_IC50_mean_uM) turn out when `OC[C@H]1O[C@@H](S[C@@H]2O[C@H](CO)[C@H](O)[C@H](O)[C@H]2O)[C@H](O)[C@@H](O)[C@H]1O` [TDG, thiodigalactoside, reference compound] was run?
**A.** 125 µM

**Q.** What about the Kd (CSV supplement, unrounded mean, read-out: Gal1_Kd_mean_uM) of the same compound?
**A.** 88.2 µM

**Q.** And the Kd (competitive fluorescence polarization, mean ± SD, read-out: Kd Gal-1)?
**A.** 88 ± 10 µM

**Q.** What about the IC50 (four-parameter logistic model, mean ± SD, read-out: IC50 Gal-1) of the same compound?
**A.** 130 ± 5 µM
